Measurements from ChEMBL document CHEMBL1135556, “alpha-bromoacetophenone derivatives as neutral protein tyrosine phosphatase inhibitors: structure-Activity relationship” (Bioorg Med Chem Lett, 2002).

Columns and labels:
[1] = molecular target: T1, Tyrosine-protein phosphatase non-receptor type 1 (Homo sapiens) (UniProt P18031); assay: Ratio between dissociation constant and First-order rate constant (Ki / K inact) was determined
T1 sequence (whole entry): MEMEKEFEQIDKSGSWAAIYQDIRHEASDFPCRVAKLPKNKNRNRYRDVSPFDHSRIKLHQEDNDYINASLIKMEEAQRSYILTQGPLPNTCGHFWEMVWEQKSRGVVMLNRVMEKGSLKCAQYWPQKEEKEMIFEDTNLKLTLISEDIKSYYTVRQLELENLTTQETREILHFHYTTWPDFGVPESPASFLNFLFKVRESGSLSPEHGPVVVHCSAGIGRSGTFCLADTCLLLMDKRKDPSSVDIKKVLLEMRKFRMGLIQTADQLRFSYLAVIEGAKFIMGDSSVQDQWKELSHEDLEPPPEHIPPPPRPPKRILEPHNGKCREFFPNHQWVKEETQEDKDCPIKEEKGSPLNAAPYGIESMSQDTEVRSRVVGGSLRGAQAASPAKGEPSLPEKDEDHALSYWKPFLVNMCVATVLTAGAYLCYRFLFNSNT

[2] = molecular target: T1, Tyrosine-protein phosphatase non-receptor type 1 (Homo sapiens); assay: First-order rate constant (K inact) for conversion of the ExI complex (Protein-tyrosine phosphatase 1B -inhibitor complex) into the covalent adduct, EI was determined using PNP as substrate

Row | SMILES | Ratio [1] | kinact [2]
1 | O=C(CBr)c1ccc([N+](=O)[O-])cc1 | 14800 M⁻¹ min⁻¹ | 2.9 min⁻¹
2 | COc1ccc(C(=O)CBr)cc1 | 18000 M⁻¹ min⁻¹ | 2.4 min⁻¹
